{"source": "paper PMC7034089", "about": "“Synthesis of novel, DNA binding heterocyclic dehydroabietylamine derivatives as potential antiproliferative and apoptosis-inducing agents” (Drug Delivery, 2020)", "system": "HepG2 (liver) cells", "test": "MTT antiproliferative assay, HepG2 cells", "type": "cell-based, human", "conditions": "normal cells (HUVEC) versus HepG2 IC50", "method": "Compounds L^1−L^10 were evaluated against human cancer cell lines Hela, HepG2, MCF-7, A549, and the normal cell HUVEC with the antiproliferative activities in vitro by MTT assay, and results are summarized as IC50 values in Table 3.\nHela, HepG2, MCF-7, A549, and HUVEC cells were used in the antiproliferative activity assay. Cancer cells were seeded in 96-well plates with a density of 10^4 cells per well, after 12 hours of incubation at 5% CO2 and 37 °C, the culture media was removed and cells were incubated with L^1−L^10 dissolved in DMEM at different concentrations (each concentration repeated 3 times) for 36 h at 5% CO2 and 37 °C. Subsequently, removed the culture media and the new culture medium containing MTT (1 mg/mL) was added, followed by incubating for 4 h to allow the formation of formazan dye (Xia et al., [2015]; Zhao et al., [2018]). After removing the medium, 200 μL DMSO was added to each well to dissolve the formazan crystals. Absorbance was measured at 595 nm in a microplate photometer. Cell viability values were determined (at least three times) according to the following formulae: cell viability (%) = the absorbance of experimental group/the absorbance of blank control group ×100%.", "data": [{"smiles": "COc1cccc2c1C(=O)c1c(O)c3c(c(O)c1C2=O)C[C@@](O)(C(=O)CO)C[C@@H]3O[C@H]1C[C@H](N)[C@H](O)[C@H](C)O1", "note": "[DOX, Doxorubicin, reference compound]", "values": [{"measurement": "security index (SI)", "value": 3.7}]}]}
